Assay results as given in patent US9617262B2, “Antibacterial cyclopental[C]pyrrole substituted 3,4-dihydro-1H-[1,8]naphthyridinones” (Janssen Sciences Ireland UC, priority 2011, dated 2017).

Assay: In vivo pharmacokinetic and oral bioavailability
Settings: male Swiss mice
Procedure: The in vivo pharmacokinetics and oral bioavailability of the compound of the examples was/is investigated in male Swiss mice (fed) following single intravenous (i.v.) bolus and oral (p.o.) administration. For the i.v. and p.o. solution formulations, the compound was/is dissolved in a 20% HP-β-CD solution. The pH of the formulations was/is around pH 4. All i.v. formulations were isotonic.

What does the source list for `O=C1CCc2cc(/C=C/C(=O)N3C[C@H]4CC(c5ccsc5)=C[C@H]4C3)cnc2N1`?
AUC0-inf (i.v. 2.5 mg/kg): 5037 ng·h/mL; Half life (t1/2) (i.v. 2.5 mg/kg): 1.3 h; AUC0-inf (p.o. 10 mg/kg): 14527 ng·h/mL; Cmax (p.o. 10 mg/kg): 2670 ng/mL; Half life (t1/2) (p.o. 10 mg/kg): 2.8 h; Tmax (p.o. 10 mg/kg): 1.0 h
